# Results published in patent publication US5418150A, “Method of cleaving DNA” (priority 1993, dated 1995).
# Amino acid sequences for entries named in this document (tags omitted). A change or cut given only in a name is not applied to a line headed by its entry.
# UniProt P50187: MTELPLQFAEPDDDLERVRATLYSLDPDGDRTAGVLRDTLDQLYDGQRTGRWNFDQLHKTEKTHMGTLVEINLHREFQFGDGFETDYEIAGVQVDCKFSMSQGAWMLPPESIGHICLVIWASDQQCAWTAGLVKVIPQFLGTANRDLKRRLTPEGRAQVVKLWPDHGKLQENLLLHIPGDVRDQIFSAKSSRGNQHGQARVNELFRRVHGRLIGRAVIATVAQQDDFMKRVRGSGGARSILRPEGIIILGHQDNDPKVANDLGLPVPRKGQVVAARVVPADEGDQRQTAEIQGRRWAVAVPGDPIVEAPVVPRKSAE
# Experiments:
# [1] = molecular target: T1, Nae I (Lentzea aerocolonigenes, UniProt P50187); experiment: Nae I cleavage of recognition sites in various DNAs (quantitative gel assay); type: biochemical, Nocardia aerocolonigenes
# [2] = molecular target: T1, Nae I; experiment: Activation of Nae I cleavage of M13mp18 RFI DNA; type: biochemical, Nocardia aerocolonigenes; set-up: Activation of Nae I cleavage of M13mp18 RF1 DNA: key to the marks not given beside the values
sequence,measurement,setting,value
CTAGCTGGTGGTGGGCGCCGGCGGTGTGGGCAGCTGGTGAGCT,Cleaved by Nae I,"[1]; absence of additional DNA or spermidine, 2 units Nae I, 0.15 μg DNA, 1 hr 37° C., double-stranded conformation as listed (sc, nk, lin, ds)",Yes
same,Km,"[1]; read-out: KM for cleavage of the oligonucleotide activator duplex, substrate binding site, first order kinetics",0.246 µM
same,Cleaved by Nae I,"[1]; single-stranded (ss), 0 sites",No
same,Activation of Nae I cleavage of M13mp18 RF1 DNA,[2]; compared to cleavage caused by an equal concentration of pBR322 Nae I sites,++++
same,Activating Nae I cleavage of M13mp18 doublestranded supercoiled DNA,"[2]; double-stranded conformation as listed (sc, nk, lin, ds)",Yes
same,KA,"[2]; from replot of FIG. 2a, varying activator at constant M13mp18 concentration",about 6 nM
same,KA,[2]; from slope of plot of Y-intercept of FIG. 2b against Y-intercept/[activator],about 10 nM
same,Effect on Nae I cleavage of M13mp18,[2]; in the presence of 1 mM spermidine,completely inhibited
same,Activating Nae I cleavage of M13mp18 doublestranded supercoiled DNA,"[2]; single-stranded (ss), 0 sites",No
same,KA for the oligonucleotide duplex (activating site),[2]; summary of both determinations,6 to 10 nM
